In article PMC7555839 (Frontiers in Microbiology, 2020):

Test system: Escherichia coli mutant [wp2 (pKM101)]
Assay: Ames test
Settings: Positive control, −S9, 1 µg/well

CN(N=O)C(=N)N[N+](=O)[O-]
Mean number of reverse mutated colonies: 206.67 ± 16.65
